The values below come from patent US20260384452A1, “TRIAZOLO RING COMPOUND METHANESULFONATE CRYSTAL FORM, PREPARATION METHOD THEREFOR AND USE THEREOF” (published 2026).

Data set [1] is described as follows: Stability of Crystal Form G: 1-month stability under illumination (5000 lux), high temperature of 60 °C, and high humidity RH 92.5%. Here is the method:
A sample, i.e., the crystal form G of the compound methanesulfonate of formula (I), was subjected to 1-month stability investigation under conditions of illumination (5000 lux), high temperature of 60 °C, and high humidity RH 92.5%.

A short description of data set [2]: 3-month long-term stability of crystal form G under high humidity RH 92.5% condition. The settings on record: 3 months. An excerpt: The crystal form G of the compound methanesulfonate of formula (I) was subjected to 3-month long-term stability investigation under high humidity RH 92.5% condition.
Setting [3] is: 1 month, high temperature 60 °C, illumination 5000 lux, high humidity RH 92.5%.

Take `CN1C(=O)COc2c1cnc1ccc(Sc3nnc4c(F)cc(-c5cnn(C)c5)cn34)cc21`: the chemical degradation entry in data set [1] (setting [3]) was “substantially no chemical degradation”. The “stability of crystal form” value in data set [1] (setting [3]) and in data set [2] was “very stable” throughout. For the same molecule, the Purity in data set [1] (High humidity (RH 92.5%), 0 days) stood at 99.5%; in data set [1] (High humidity (RH 92.5%), 5 days), 99.5%; in data set [1] (High humidity (RH 92.5%), 10 days), 99.5%; in data set [1] (High humidity (RH 92.5%), 30 days) it was 99.4%; in data set [1] (High temperature (60 °C), 0 days), 99.5%; in data set [1] (High temperature (60 °C), 5 days), 99.5%. Also, the Purity in data set [1] (High temperature (60 °C), 10 days) is listed as 99.4%; in data set [1] (High temperature (60 °C), 30 days) it was 99.4%; in data set [1] (Illumination (5000 lux), 0 days), 99.5%; in data set [1] (Illumination (5000 lux), 5 days), 99.4%; in data set [1] (Illumination (5000 lux), 10 days), 99.4%; in data set [1] (Illumination (5000 lux), 30 days), 99.4%. The “polymorphic transformation and dissociation” value in data set [2] is “no polymorphic transformation and dissociation occurred”.
